Key:
[1] = tested on: TLR9-activated pDCs; assay: IFNA gene expression (Q-PCR) in pDCs activated with TLR9 agonist CpG-C274; type: cell-based, human
[2] = tested on: pDCs; assay: Intracellular ATP in pDCs (ATP determination kit); type: cell-based, human; settings: TM or TG with pyruvate 10 mM or α-KG 10 mM for 3 h, then TLR9 agonist; 2.5 h; FIGS. 3E-3H
Procedure: Supernatants were removed, and cells were deproteinated in 0.5 ml of 0.5M MPA on ice for 5 min, followed by centrifugation at 10000×g for 5 min at 4° C. The deproteinated samples were neutralized with 25 μl of potassium carbonate, and then centrifugation at 10000×g for 5 min at 4° C. The supernatant was removed and deproteinated samples were used for pyruvate assay. For ATP determination, ATP determination kit (Sigma: A22066) was used in pDCs extracts as per the manufacture protocol.

`O.O=C([O-])CCC(=O)C(=O)[O-].[Na+].[Na+]` [α-KG, α-ketoglutaric acid disodium salt hydrate] was tested, and the “IFNA expression by TLR9-activated pDCs under ER stress with metabolite supplementation” value [1] was “rescued” and the “intracellular ATP levels under ER stress with metabolite supplementation” value [2] was “restored”.

Source: patent US20240033277A1, “METHODS FOR TREATING AUTOIMMUNE DISEASES” (NEW YORK SOCIETY FOR THE RELIEF OF THE RUPTURED AND …, priority 2020, published 2024)
